Laboratory results reported in patent publication US20230293639A1, “SYSTEMS, DEVICES, COMPOSITIONS, AND METHODS FOR TREATING DIABETES” (Abvance Therapeutics, Inc., priority 2020, published 2023).
Where two headings read alike, the source gives them in different places.

- gelling (AB pH 3.65, no excipient): gelling was observed
- gelling (AB pH 4.02, no excipient): gelling was observed
Structure (SMILES): CSCC[C@H](NC(=O)[C@H](CC(C)C)NC(=O)[C@H](Cc1c[nH]c2ccccc12)NC(=O)[C@H](CCC(N)=O)NC(=O)[C@@H](NC(=O)[C@H](Cc1ccccc1)NC(=O)[C@H](CC(=O)O)NC(=O)[C@H](CCC(N)=O)NC(=O)[C@H](C)NC(=O)[C@H](CCCN=C(N)N)NC(=O)[C@H](CCCN=C(N)N)NC(=O)[C@H](CO)NC(=O)[C@H](CC(=O)O)NC(=O)[C@H](CC(C)C)NC(=O)[C@H](Cc1ccc(O)cc1)NC(=O)[C@H](CCCCN)NC(=O)[C@H](CO)NC(=O)[C@H](Cc1ccc(O)cc1)NC(=O)[C@H](CC(=O)O)NC(=O)[C@H](CO)NC(=O)[C@@H](NC(=O)[C@H](Cc1ccccc1)NC(=O)[C@@H](NC(=O)CNC(=O)[C@H](CCC(N)=O)NC(=O)[C@H](CO)NC(=O)[C@@H](N)Cc1c[nH]cn1)[C@@H](C)O)[C@@H](C)O)C(C)C)C(=O)N[C@@H](CC(N)=O)C(=O)N[C@H](C(=O)O)[C@@H](C)O [glucagon]
